Literature values, collected in patent publication US9902758B2, “Three-helix bundle protein and use thereof” (Samsung Electronics Co., Ltd., priority 2015, dated 2018).

The chains behind the UniProt entries cited, without tags or fusion partners.
UniProt Q00987, whole entry: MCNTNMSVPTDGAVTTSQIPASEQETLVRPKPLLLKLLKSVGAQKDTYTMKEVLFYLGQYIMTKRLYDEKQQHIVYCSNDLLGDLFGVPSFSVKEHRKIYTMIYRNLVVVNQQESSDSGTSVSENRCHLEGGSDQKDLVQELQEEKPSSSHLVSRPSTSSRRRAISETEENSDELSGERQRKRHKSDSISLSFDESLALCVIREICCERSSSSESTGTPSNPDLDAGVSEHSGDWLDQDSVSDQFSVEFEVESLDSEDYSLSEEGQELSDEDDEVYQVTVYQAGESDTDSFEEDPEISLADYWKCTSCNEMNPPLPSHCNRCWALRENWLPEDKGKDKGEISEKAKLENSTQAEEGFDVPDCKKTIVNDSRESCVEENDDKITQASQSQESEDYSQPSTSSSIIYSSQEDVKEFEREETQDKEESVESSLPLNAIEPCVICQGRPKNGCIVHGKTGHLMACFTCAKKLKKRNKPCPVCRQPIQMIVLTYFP

Biological target: HDM2 (Homo sapiens, UniProt Q00987)
Details: related art statement; cited from earlier work

COc1ccc(C2=N[C@@H](c3ccc(Cl)cc3)[C@@H](c3ccc(Cl)cc3)N2C(=O)N2CCNC(=O)C2)c(OC(C)C)c1 [Nutlin-3]
inhibition of binding of HDM2/HDMX and p53: inhibit only the binding of HDM2 and p53
